Target: CD123 extracellular domain (human (cDNA of L-428 cells), UniProt P26951)
Test: cell-based or functional assay

Sequences of proteins named here, by UniProt entry; tags and fusion partners are left off. Residues count along the entry.
UniProt P26951, 19-305: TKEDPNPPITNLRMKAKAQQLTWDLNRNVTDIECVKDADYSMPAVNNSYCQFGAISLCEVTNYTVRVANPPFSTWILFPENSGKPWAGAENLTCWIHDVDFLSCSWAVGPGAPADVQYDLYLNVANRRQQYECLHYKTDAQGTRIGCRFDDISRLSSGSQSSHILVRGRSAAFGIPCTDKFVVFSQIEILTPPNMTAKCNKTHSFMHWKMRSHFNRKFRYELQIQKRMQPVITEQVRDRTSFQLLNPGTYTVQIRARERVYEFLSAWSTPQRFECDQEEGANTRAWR

B1: 2 × SIRPα-αCD123 fusion antibody (bispecific antibody, V domains shown)
VH: EVQLVQSGAEVKKPGESLKISCKGSGYSFTDYYMKWARQMPGKGLEWMGDIIPSNGATFYNQKFKGQVTISADKSISTTYLQWSSLKASDTAMYYCARSHLLRASWFAYWGQGTMVTVSS
VL: DIVMTQSPDSLAVSLGERATINCESSQSLLNSGNQKNYLTWYQQKPGQPPKPLIYWASTRESGVPDRFSGSGSGTDFTLTISSLQAEDVAVYYCQNDYSYPYTFGQGTKLEIK
With B1 the “EC50 of NK cell-mediated lysis (ADCC) of MOLM-13 cells, calcein AM release, 4 h, E:T 5:1” value was 0.0191 nM.

Source: PMC8477557 (Journal of Hematology & Oncology, 2021)
